Data from ChEMBL document CHEMBL4699600, “Design, Synthesis, and Biological Evaluation of Covalent Inhibitors of Focal Adhesion Kinase (FAK) against Human Malignant Glioblastoma” (J Med Chem, 2020).

Chains of the proteins cited; added tags and fusions are not shown.
UniProt Q05397, whole entry, looked up: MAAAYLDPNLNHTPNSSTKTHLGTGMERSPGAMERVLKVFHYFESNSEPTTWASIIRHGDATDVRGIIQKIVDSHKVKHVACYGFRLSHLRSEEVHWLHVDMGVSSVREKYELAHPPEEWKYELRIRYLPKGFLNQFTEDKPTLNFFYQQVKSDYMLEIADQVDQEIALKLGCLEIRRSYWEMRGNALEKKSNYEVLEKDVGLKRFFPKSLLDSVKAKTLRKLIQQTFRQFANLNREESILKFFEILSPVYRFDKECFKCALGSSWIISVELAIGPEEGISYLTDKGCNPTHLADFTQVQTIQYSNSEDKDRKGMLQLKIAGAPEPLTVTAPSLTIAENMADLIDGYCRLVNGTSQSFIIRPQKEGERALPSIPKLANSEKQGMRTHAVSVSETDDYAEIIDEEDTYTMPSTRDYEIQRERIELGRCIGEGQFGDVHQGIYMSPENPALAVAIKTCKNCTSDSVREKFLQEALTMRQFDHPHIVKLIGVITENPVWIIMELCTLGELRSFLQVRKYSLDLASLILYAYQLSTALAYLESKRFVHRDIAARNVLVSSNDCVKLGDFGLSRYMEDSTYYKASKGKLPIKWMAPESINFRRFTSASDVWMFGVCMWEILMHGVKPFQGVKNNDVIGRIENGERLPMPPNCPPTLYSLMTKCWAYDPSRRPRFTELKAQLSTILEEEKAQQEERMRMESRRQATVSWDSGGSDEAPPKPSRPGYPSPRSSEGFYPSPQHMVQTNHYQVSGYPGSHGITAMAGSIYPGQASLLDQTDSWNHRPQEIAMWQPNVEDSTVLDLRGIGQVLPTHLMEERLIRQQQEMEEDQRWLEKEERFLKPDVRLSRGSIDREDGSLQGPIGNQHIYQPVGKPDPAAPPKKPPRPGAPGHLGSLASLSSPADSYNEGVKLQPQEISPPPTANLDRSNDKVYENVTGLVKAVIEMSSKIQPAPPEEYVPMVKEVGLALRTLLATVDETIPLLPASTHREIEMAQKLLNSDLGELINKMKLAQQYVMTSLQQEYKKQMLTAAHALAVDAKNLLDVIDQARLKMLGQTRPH

target: Focal adhesion kinase 1 (Homo sapiens, UniProt Q05397); conditions: Sf9, time min 2-120

Kinact	SMILES
0.25 min⁻¹	CNC(=O)c1ccccc1Nc1nc(Nc2ccc(CNc3c(NCCNC(=O)/C(C#N)=C/C(C)C)c(=O)c3=O)cc2)ncc1Cl
0.16 min⁻¹	C=CC(=O)NCCNc1c(NCc2ccc(Nc3ncc(Cl)c(Nc4ccccc4C(=O)NC)n3)cc2)c(=O)c1=O
0.047 min⁻¹	C=CC(=O)NCCNc1c(NCc2ccc(Nc3ncc(C(F)(F)F)c(Nc4ccccc4C(=O)NC)n3)cc2)c(=O)c1=O
